Values quoted from earlier work in publication PMC4871753.
pKd: −log10 of the molar value.

Chains of the proteins cited; added tags and fusions are not shown. Residues count along the entry.
UniProt P19235, 25-250: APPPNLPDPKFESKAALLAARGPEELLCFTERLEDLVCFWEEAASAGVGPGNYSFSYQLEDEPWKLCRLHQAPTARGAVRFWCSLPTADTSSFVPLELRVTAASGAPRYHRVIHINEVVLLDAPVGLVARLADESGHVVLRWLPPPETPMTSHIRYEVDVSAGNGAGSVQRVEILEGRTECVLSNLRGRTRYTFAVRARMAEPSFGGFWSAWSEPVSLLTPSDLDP

Target: EpoR (Homo sapiens) (UniProt P19235)

- pKd: 9.23
Substance: Epo-NLuc (from UniProt P01588)
